Values quoted from earlier work in patent US20230162361A1, “ASSESSMENT OF SKIN TOXICITY IN AN IN VITRO TISSUE SAMPLES USING DEEP LEARNING” (Genentech, Inc., priority 2020, published 2023).

Key:
[1] = clinical exposure, cetuximab label; cited from earlier work
skin = settings: human, in vivo; cited from earlier work

Substance: Cetuximab
- Cmax_free [1]: 235 µg/mL
- Skin tox. (skin): Yes
